Results on 79 compounds are retold here after published antibiotic growth screens (doi:10.1038/s41589-023-01349-8).

Some of the results follow.

The experiment has as its system A. baumannii ATCC 17978. Put plainly: relative growth (fraction of control); higher = less inhibition. Conditions: 50 µM.
Take `CC(=O)NCCCC[C@@H]1NC(=O)[C@H]2C[C@@H](C(=O)NCCCCCNC(=O)CS)[C@@H](c3ccc(O)cc3)N2C1=O`: the relative growth came to 1.03. `O=C(N/N=C/[C@H](O)[C@@H](O)[C@H](O)CO)c1ccccc1O`: the relative growth was determined as 0.867. The result for `COc1ccc(-c2cc(=O)c3c(OC)c(OC)c(OC)c(OC)c3o2)cc1OC` reads 0.826. The result for `OC[C@H]1O[C@@H](O[C@@H]2[C@@H](CO)O[C@](O)(CO)[C@H]2O)[C@H](O)[C@@H](O)[C@H]1O` reads 1.05; that for `O=C(Cc1ccccn1)NCC[C@@H]1CC[C@H](NC(=O)CN2CCOCC2)[C@H](CO)O1`, 0.908.

Turning to `CC/C=C\C/C=C\C/C=C\C/C=C\C/C=C\C/C=C\CCC(=O)O`, the relative growth came out at 0.943. `O=C(C[C@@H]1CC[C@H](NC(=O)CN2CCOCC2)[C@@H](CO)O1)NCCc1ccccc1` had a relative growth of 0.899. The result for `CCCCC(CC)COc1ccc(-c2nc(-c3ccc(OC)cc3)nc(-c3ccc(OCC(CC)CCCC)cc3O)n2)c(O)c1` (centres undefined) reads 1.12. `Cl.OC(CCN1CCCC1)(c1ccccc1)C1CCCCC1` (centres undefined) showed a relative growth of 0.944.

For `CCC(=O)N[C@@H]1C=C[C@H](CC(=O)OC)O[C@@H]1CO`, the relative growth was determined as 1.14. In turn, `Cc1nnc(Nc2cccc([C@H]3CCCN(C(=O)CN)C3)n2)s1` gave a relative growth of 0.863. The result for `CC[C@@](C)(Nc1n[nH]c(=O)[nH]c1=O)C(=O)O` reads 1.04. The result for `CCCNC(=O)N(C)C[C@@H]1Oc2cc(C#Cc3cccc(F)c3)ccc2S(=O)(=O)N([C@@H](C)CO)C[C@@H]1C` reads 0.805. The result for `Cn1cnc(CCNC(=O)C[C@@H]2CC[C@@H]3[C@H](COC[C@@H](O)CN3C(=O)Nc3ccc(Cl)cc3)O2)c1` reads 0.992; that for `CC(C)CCCC(C)C1CCC2C3CC[C@H]4CC(=O)CC[C@]4(C)C3CC[C@]12C` (some centres undefined), 0.981. `C[C@@H]1CN([C@H](C)CO)S(=O)(=O)c2ccc(-c3cncnc3)cc2O[C@@H]1CN(C)C(=O)NC1CCCC1` returned a relative growth of 1.19. The result for `O=C(C[C@@H]1CC[C@@H]2[C@H](COC[C@@H](O)CN2S(=O)(=O)c2ccc(Cl)cc2)O1)NCCN1CCCCC1` reads 1.19; that for `CC1(C)CC[C@]2(C)CC[C@]3(C)C(=CCC4[C@@]5(C)CC[C@H](OC(=O)c6ccccc6)C(C)(C)C5CC[C@]43C)C2C1` (stereo partly drawn) [beta-AMYRIN BENZOATE], 1.03. The result for `[N-]=[N+]=Nc1ccccc1[C@@H]1OC(c2ccc(OCCCO)cc2)=N[C@]1(Cc1ccccc1)C(=O)NC[C@@H](O)CO` reads 0.801; that for `C[C@H](CO)N1C[C@H](C)[C@H](CN(C)C(=O)CN(C)C)Oc2cc(-c3ccc(C#N)cc3)ccc2S1(=O)=O`, 0.989. Consider `COCC(=O)Nc1ccc2c(c1)C(=O)N(C)[C@H]1CC[C@@H](CC(=O)NCc3ccc(OC)cc3)O[C@@H]1CO2`, for which the relative growth is 0.963. The result for `C[C@H](CO)N1C[C@H](C)[C@@H](CN(C)C(=O)CN2CCOCC2)Oc2ncc(-c3cncnc3)cc2C1=O` reads 1.09; that for `Cc1ccc(S(=O)(=O)N[C@@H]2CC[C@H](CC(=O)N3CCC(Cc4ccccc4)CC3)O[C@@H]2CO)cc1`, 0.6. The result for `Cn1nnc2cc(C(=O)NC3CC3)ccc21` reads 1.06; that for `O=C(C[C@@H]1C[C@H]2c3cc(NS(=O)(=O)c4ccc(F)cc4)ccc3O[C@H]2[C@H](CO)O1)N1CCOCC1`, 0.813. The result for `CC(=O)NCCCC[C@@H]1NC(=O)[C@@H]2C[C@H](C(=O)NCCCC[N+](C)(C)C)[C@H](c3cccc(OCCO)c3)N2C1=O` reads 1.13.

`CCCN1C[C@@H](C)[C@H](OC)CN(C)C(=O)c2cc(NS(=O)(=O)c3cn(C)cn3)ccc2OC[C@@H]1C` came in with a relative growth of 0.84.

Compound `COc1cccc(-n2cc(C(=O)NO)nn2)c1` registered a relative growth of 1.06. The result for `Cl.Clc1ccccc1CN1CCc2sccc2C1` reads 1.19; that for `COc1cccc([C@@H](N)c2ccccc2)c1`, 0.966. `C[C@@H]1CN([C@@H](C)CO)S(=O)(=O)c2ccc(C#CC(C)(C)O)cc2O[C@H]1CN(C)Cc1ccncc1` had a relative growth of 0.919. For `Cc1noc(C)c1NC(=O)N[C@@H]1CC[C@H](CC(=O)NCCCN(C)C)O[C@@H]1CO`, the relative growth was determined as 1.11. The result for `CCCCCCOc1ccccc1C(N)=O` reads 0.893.

In turn, `CN1CCN(C(=O)C[C@@H]2CC[C@@H](NC(=O)c3ccc4c(c3)OCO4)[C@H](CO)O2)CC1` came in with a relative growth of 0.732. The result for `Cn1cnc(S(=O)(=O)N[C@H]2C=C[C@H](CC(=O)Nc3ccccc3)O[C@H]2CO)c1` reads 1.05; that for `CC(C)(S)[C@H](N)C(=O)O.NCCO`, 1.33; that for `C[C@@H]1COC(=O)[C@H](Cc2ccc(F)cc2)CC=CC[C@@H](CC(=O)N[C@@H](CO)Cc2ccccc2)C(=O)N1`, 0.778. Compound `COc1cc2c(cc1OC)CN(C(=O)[C@H]1[C@@H]3C(=O)O[C@@H](c4ccccc4)[C@@H](c4ccccc4)N3[C@@H](c3ccc(O)cc3)[C@]13C(=O)Nc1ccc(C#CC4(O)CCCCCC4)cc13)CC2` displayed a relative growth of 0.994. The result for `C[C@H](NC(=O)C[C@H]1CC[C@H](NC(=O)CN2CCOCC2)[C@@H](CO)O1)c1ccccc1` reads 1.01; that for `C[C@H](CO)N1C[C@H](C)[C@@H](CN(C)Cc2ccccc2)Oc2cc(C#CC(C)(C)O)ccc2S1(=O)=O`, 0.678. The result for `O=c1[nH][nH]c(=S)n1C1CC1` reads 0.821. In turn, `C[C@@H]1CN([C@H](C)CO)S(=O)(=O)c2ccc(C#Cc3ccccc3)cc2O[C@H]1CN(C)S(=O)(=O)c1ccccc1F` showed a relative growth of 1.03.

Compound `O=C(O)CCSc1n[nH]c(=O)[nH]c1=O` returned a relative growth of 1.1.

In turn, `O=C(C[C@H]1CC[C@@H]2[C@H](COC[C@H](O)CN2S(=O)(=O)c2ccc(Cl)cc2)O1)NCCN1CCCC1` yielded a relative growth of 0.872. The result for `COC(=O)[C@H](Cc1ccccc1)N1CC2=C[C@@H]([C@@H](O)CCn3cc(-c4ccc(C(=O)NO)s4)nn3)n3c(=O)n(C)c(=O)n3[C@@H]2[C@@H](C2CC2)O1` reads 1.29. The result for `O=C(C[C@H]1CC[C@H](NC(=O)c2cnccn2)[C@@H](CO)O1)NCc1ccccc1F` reads 1.04; that for `CO[C@H](CCO)[C@H](O)c1ccc(O)c(F)c1`, 1.04.

Take `Cl.c1ccc(C2CN3CCSC3=N2)cc1` (centres undefined): the relative growth was determined as 0.936. Consider `NC(=O)c1cc2ccccc2o/c1=N\O`, for which the relative growth was 0.473.

`CC[C@H]1OC(=O)[C@H](C)[C@@H](O[C@H]2C[C@@](C)(OC)[C@@H](O)[C@H](C)O2)[C@H](C)[C@@H](O[C@@H]2O[C@H](C)C[C@H](N(C)C)[C@H]2O)[C@](C)(O)C[C@@H](C)CN(C)[C@H](C)[C@@H](O)[C@]1(C)O`: the relative growth was determined as 0.146. In the case of `O=C(O)/C=C/C(=O)NCc1ccccc1`, the relative growth came to 1.17.

In turn, `C=C1C(c2ccc(C)cc2)=CCc2cc(C)cc(C)c21` registered a relative growth of 0.904. `C/C=C/c1ccc2c(c1)O[C@@H](CN(C)S(=O)(=O)c1ccccc1OC)[C@H](C)CN([C@@H](C)CO)S2(=O)=O` returned a relative growth of 0.997. The result for `Cn1c(=O)c2c(nc(Sc3nnc(N)s3)n2C)n(C)c1=O` reads 1.06; that for `CN[C@H]1CC[C@@H](c2ccc(Cl)c(Cl)c2)c2ccccc21`, 0.208; that for `COc1ccccc1C#Cc1ccc2c(c1)O[C@@H](CN(C)C(C)=O)[C@@H](C)CN([C@@H](C)CO)S2(=O)=O`, 0.796. The result for `CO[C@@H]1[C@@H](O[C@@H]2O[C@H](C)C(O[C@H]3C[C@@](C)(O)[C@@H](OC(=O)CC(C)C)[C@H](C)O3)[C@H](N(C)C)[C@H]2O)[C@@H](CC=O)C[C@@H](C)[C@@H](O)/C=C/C=C/C[C@@H](C)OC(=O)C[C@H]1O` (some centres undefined) [KITASAMYCINS [A1 shown]] reads 0.153; that for `C[C@@H]1NC(=O)[C@@H]2CCCN2C(=O)[C@H](CC(N)=O)NC(=O)[C@@H]2CSSC[C@H](N)C(=O)N[C@H]3CSSC[C@H](NC1=O)C(=O)N[C@@H]([C@@H](C)O)C(=O)NCC(=O)N[C@H](C(=O)N[C@@H](Cc1ccc(O)cc1)C(=O)O)CSSC[C@H](NC(=O)[C@H](Cc1ccc(O)cc1)NC(=O)[C@H](CCC(=O)O)NC3=O)C(=O)N2`, 0.959. In the case of `Nc1ccc(S(=O)(=O)Nc2nccs2)cc1`, the relative growth worked out at 0.968. The result for `CC(C)CNC(=O)C[C@H]1NCCNC1=O` reads 0.939; that for `C=C1C(C2(C)C=CC(=O)C(C)(C)C2CC(=O)OC)CC[C@@]2(C)[C@H](c3ccoc3)OC(=O)C3OC132` (some centres undefined), 1.01; that for `CN(C)Cc1cn(CC[C@@H]2CC[C@H](NC(=O)Cc3cccnc3)[C@H](CO)O2)nn1`, 1.04. Compound `CCCCCCCCCCCC[C@H](C(=O)O)[C@@H](C)C(=O)O` yielded a relative growth of 1.1. Compound `Cc1ccc(-c2cc(C(F)(F)F)nn2-c2ccc(S(N)(=O)=O)cc2)cc1` showed a relative growth of 0.886. The result for `O=C1c2ccccc2C(=O)c2c(O)c(O)cc(O)c21` reads 1.06; that for `COc1ccc(OC)c(CCNC(=O)CN)c1`, 1.21. Turning to `NC(=O)c1cc2ccccc2nc1C(N)=O`, the relative growth was determined as 1.03.

Compound `Nc1ccc(-n2cnnn2)cc1` displayed a relative growth of 0.948. The result for `CCCNC(=O)[C@@H]1c2ccccc2C(=O)N(Cc2cc(C(F)(F)F)cc(C(F)(F)F)c2)[C@H]1c1ccc(CO)cc1` reads 0.897; that for `CSc1n[nH]c2nc(=O)cc(N)n12`, 1; that for `O=C(C[C@H]1CC[C@@H]2[C@H](COC[C@H](O)CN2C(=O)c2ccc3c(c2)OCO3)O1)NC1Cc2ccccc2C1`, 1.01. The result for `CNC(=N)NCCC[C@@H](N)C(=O)O` reads 1.04. As for `CCOC(=O)C1=C(N)C(=O)N(CCCN2CCOCC2)C1`, the relative growth came to 1.21. The result for `O=C(CN1CCOCC1)N[C@H]1CC[C@H](CCNC(=O)C2CCC2)O[C@@H]1CO` reads 1.18. As to `COC(=O)c1c(OC)cc2c(c1C)Oc1c(Cl)c(O)c(Cl)c(C)c1C(=O)O2`, the relative growth is 1.19. Take `O=C(C[C@H]1CC[C@H]2[C@@H](COC[C@@H](O)CN2C(=O)Nc2cccc(F)c2)O1)NCc1ccccc1Cl`: the relative growth turned out to be 0.999.

For the compound `Cc1ccc(S[C@]2(C(=O)NC3CC3)CC(=O)N(C3Cc4ccccc4C3)[C@@H]2c2ccc(CO)cc2I)cc1`, the relative growth worked out at 0.991. For `C[C@@H]1CN([C@H](C)CO)S(=O)(=O)c2ccc(-c3ccccc3F)cc2O[C@@H]1CN(C)S(C)(=O)=O`, the relative growth is 0.983.

`CC(C)NC(=O)N[C@@H]1C=C[C@@H](CC(=O)O)O[C@@H]1CO` had a relative growth of 1.01.
